ChEMBL document CHEMBL4052827, “Discovery of Tetrahydroisoquinoline-Containing CXCR4 Antagonists with Improved in Vitro ADMET Properties” (J Med Chem, 2018)

Species: Homo sapiens
Experiment: Selectivity index, ratio of IC50 for recombinant human CYP2D6 expressed in microsomes of insect cells to IC50 for CXCR4 in human CCRF-CEM cells

Structure (SMILES): CC(C)(CCN(C[C@H]1Cc2ccccc2CN1)[C@H]1CCCc2cccnc21)CNC1CCOCC1
- Ratio IC50: 171
